## Apparent affinities of Ab-14 variants for a coronavirus HR2 peptide

The measurements come from Li et al. 2023 (doi:10.1038/s41467-023-39022-2) through the FLAb antibody collection.

Target peptide (SARS-CoV-2 spike, HR2 region): PDVDLGDISGINAS

Parent: Ab-14, a human scFv built as VH, three GGGGS repeats, VL. Only the CDRs of the light chain vary.
VH: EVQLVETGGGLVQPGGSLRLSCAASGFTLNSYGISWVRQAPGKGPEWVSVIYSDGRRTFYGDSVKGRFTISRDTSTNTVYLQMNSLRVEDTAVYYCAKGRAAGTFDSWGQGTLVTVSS
VL: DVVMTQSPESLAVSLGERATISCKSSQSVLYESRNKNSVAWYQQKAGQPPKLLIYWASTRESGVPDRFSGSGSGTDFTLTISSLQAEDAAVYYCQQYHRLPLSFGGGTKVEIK

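Phage display of a naive human antibody library on the peptide gave the parent. The variants were designed computationally from a first round of random CDR variants and then made and measured. Their group label is 14L_GP_Gibbs (GP: Gaussian process model; Gibbs: Gibbs sampling; a sequence that several methods proposed may carry one label only). AlphaSeq pools MATa yeast showing the antibodies with MATalpha yeast showing the peptide. Binding brings cells together so that they mate, and sequencing counts the barcode pairs among the diploids. Read counts were normalised to the haploid input and turned into Kd by a linear fit to BCL2-family pairs of known affinity, for each replicate. There are six technical replicates.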

Variants are written as CDR1, CDR2 and CDR3 of the light chain (limits as in the source). Parent: KSSQSVLYESRNKNSVA, WASTRES, QQYHRLPLS. Values are log10 of the apparent Kd in nM; lower means stronger binding. The mean shown is taken over the replicates in which the pair was detected. "n.d." means that the variant was in the library but no mating with the target was seen in that replicate; the authors take this as a sign of poor binding, and no number exists. Background: pairings of all light chain designs with three empty control strains gave a value in 4% of cases (median 2.64, 5th percentile 1.59). Values in that range, when seen in few replicates, are hard to tell from nonspecific mating. The control count says in how many pairings with the empty strains this scFv gave a signal, with their mean in brackets.

CDR-L1	CDR-L2	CDR-L3	replicates, log10 nM	mean, log10 nM	control signals
KLSCSVLYDEPNSNSVA	NASTRPM	QQYHRLPLS	0.29 / 0.40 / 0.25 / 0.16 / 0.21 / 0.34	0.28	4/18 (3.24)
KIMQSEYYEDRNKMSVA	SASQRLS	QQYHRLPLS	0.66 / 0.34 / 0.38 / 0.32 / 0.45 / 0.33	0.41	3/18 (3.23)
KSSPSYLYEDRAFNSVA	NASTRES	QQYHRLPLS	0.27 / 0.40 / 0.33 / 0.25 / 0.41 / 0.47	0.35	1/18 (2.86)
KVSYSVEYEDRNKNSVA	QASQRNS	QQYHRLPLS	0.43 / 0.61 / 0.28 / 0.16 / 0.08 / 0.39	0.32	0/18
KARQSNLYEDRNQNSVA	SASQRLS	QQYHRLPLS	0.28 / 0.27 / 0.14 / -0.09 / -0.11 / 0.19	0.11	0/18
KQSPQDLQQSRNKNQVA	DASTRES	QQYHRLPLS	0.23 / 0.20 / 0.03 / -0.15 / -0.22 / 0.19	0.05	0/18
KLSMQEMMESRNKNSVA	SANTREE	QQYHRLPLS	0.17 / -0.10 / 0.01 / -0.20 / 0.28 / 0.20	0.06	1/18 (2.89)
KFYGSHLYESRMENSVA	NASQRES	QQYHRLPLS	0.32 / 0.25 / 0.21 / 0.39 / 0.46 / 0.26	0.32	1/18 (2.06)
KMEWSDLLESRNKQSVA	QASTRES	QQYHRLPLS	-0.11 / 0.02 / 0.00 / -0.21 / -0.12 / 0.27	-0.02	1/18 (2.52)
FLSQSWDYEDRPKNSVA	NASTRMS	QQYHRLPLS	0.19 / 0.03 / 0.02 / -0.21 / 0.15 / 0.10	0.05	1/18 (2.98)
KLQGSKEYLSRWKNSVA	HASVREV	QQYHRLPLS	1.36 / 1.14 / 1.53 / 1.41 / 1.62 / 2.57	1.60	1/18 (3.65)
KLSYSNLYEDRNKNSVA	NASTREQ	QQYHRLPLS	0.57 / 0.47 / 0.39 / 0.22 / 0.19 / 0.80	0.44	1/18 (2.93)
KMFQSEGMEERNVNSVA	HASQRLD	QQYHRLPLS	0.17 / -0.02 / -0.03 / -0.17 / -0.10 / 0.14	0.00	1/18 (3.96)
KLQQSWEYESRNSNNVA	MGSTRED	QQYHRLPLS	-0.15 / -0.32 / -0.39 / -0.54 / -0.25 / -0.24	-0.32	1/18 (3.43)
KLSGSVLGESRNKNSVA	SADTRLS	QQYHRLPLS	n.d. / -0.37 / 0.32 / 1.20 / 0.66 / 0.18	0.40	0/18
KIDQWKLGESVNKNSVA	DASTRMS	QQYHRLPLS	0.05 / -0.24 / -0.31 / -0.23 / -0.19 / -0.06	-0.16	1/18 (2.65)
KVDQWEQYGSRNKNSVA	SASQRCS	QQYHRLPLS	0.26 / -0.17 / 0.00 / -0.13 / -0.07 / 0.02	-0.01	0/18
HCSQSVWQEERQKNSVA	NASQREQ	QQYHRLPLS	0.81 / 0.72 / 0.62 / 0.59 / 0.90 / 0.68	0.72	1/18 (2.16)
KLSQQDWYEQRNCNSVA	QASTREQ	QQYHRLPLS	0.41 / 0.74 / 0.37 / 0.58 / 0.37 / 0.58	0.51	2/18 (2.23)
KVSQSVLGLQRAQNSVA	EASKRES	QQYHRLPLS	0.67 / 0.90 / 0.38 / 0.61 / 0.53 / 0.78	0.65	0/18
KSEGGELYESRNKNSVA	GASMRES	QQYHRLPLS	0.21 / -0.16 / 0.05 / 0.09 / -0.19 / 0.16	0.03	1/18 (2.60)
KVEQGVLDESRNDNSVA	WASTREG	QQYHRLPLS	1.47 / 1.75 / 1.64 / 0.58 / 1.97 / 1.39	1.47	0/18
KLQQLVLYESRNKNSVA	QASTRMS	QAYHRLPLS	1.16 / 1.44 / 1.00 / 0.96 / 1.41 / 1.82	1.30	2/18 (2.52)
KLMWSMQYESRNKNSVA	GASTRES	QQYHRLPLS	0.63 / -0.07 / 0.09 / 0.11 / 0.34 / 0.11	0.20	1/18 (2.39)
KYWISHLGESRNKNAVA	NASTREE	QQYHRLPLS	0.13 / 0.14 / -0.09 / -0.02 / 0.20 / -0.03	0.06	3/18 (2.72)
KMSQAVWYESRNKNSVA	EASLREQ	QQYHRLPLS	-0.20 / -0.32 / -0.40 / -0.61 / -0.37 / -0.10	-0.33	0/18
KLQQSDLYESRNKNNVA	NASLREQ	QDYHRLPLS	-0.15 / -0.46 / -0.39 / -0.67 / -0.41 / -0.27	-0.39	1/18 (2.39)
KFQGSVMMGDRNKNSVA	KASTRLS	QQYHRLPLS	0.29 / 0.58 / 0.50 / 0.47 / 0.43 / 0.55	0.47	1/18 (1.40)
KLVQHHDYESRNKNNVA	QASQREQ	QQYHRLPLS	0.09 / -0.07 / -0.08 / -0.22 / -0.20 / -0.06	-0.09	0/18
KSPQSVLGMDMMKNSVA	QASQRES	QQYHRLPLS	0.23 / 0.01 / 0.30 / 0.17 / 0.35 / 0.48	0.26	0/18

In the paper, a design with two or fewer of six values counts as a poor binder. The parent sequence was in this pool as ten entries: three were never detected, three once, and four in most replicates, with averages from 0.34 to 2.37. Values of this round are not directly comparable with the first-round values of the same sequences.